# Compound activity from PubChem BioAssay.
# Tn7 DDE FP – inhibitors of Tn7 peptide binding to human fibrin DD(E); P02675; FP displacement of FITC-Tn7 peptide from fibrin DD(E); 0% = median of compound wells per plate; inhibition, % at 8.3 µM; 370,000 compounds, 0.13% hits;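 active = inhibition above the mean of compounds falling within the control limits plus 3 SD of them, cut at about 14% in these data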;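 note: 0% = plate median of compound wells and 100% = 10 µM Aha-Tn7 peptide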
#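 system = human fibrin DD(E) protein | quantity = DD(E) 2 µM final | medium = Tris/NaCl/CaCl2 buffer, pH 7.8 | also added = labelled Tn7 tracer, 0.1 µM | compound dosing = single point at 8.3 µM | timing = compound with protein 10 min, then 3 h after probe, room temperature | signal = FP measurement | benchmarks = Aha-Tn7 high control | repeats = one replicate per compound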
# Yeast UUG start-1 – modulators of yeast start codon fidelity, primary screen, whole organism, S. cerevisiae, single point, plate reader; S. cerevisiae UUG-firefly luciferase reporter, luminescence/redox ratio; activity score, % at 18.7 µM; 0.13% of 350,000 active; AID 602363, 2012;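 active = replicate mean at a twofold rise or more, about +100% in these data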;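 also: firefly luciferase made from a UUG start codon reports start codon fidelity; reporter light over untreated wells divided by growth signal over untreated wells; some hits fall short of that in this replicate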
# PglD DTNB – PglD (C. jejuni) enzyme inhibition; purified PglD enzyme, DTNB colorimetric CoA detection; inhibition, % at 12.5 µM; 360,000 compounds, 0.098% hits; AID 602405; in the data active = inhibition above about 16%, passing the limit was not always enough
# Tn6 DDE FP – disrupts Tn6 cyclic peptide binding to fibrin D-Dimer-E complex; P02675; Fibrin DD(E) TRITC-Tn6 fluorescence polarization displacement; inhibition, % at 8.3 µM; 370,000 compounds, 0.21% hits; AID 720509;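 active = inhibition above a per-campaign cutoff: mean of compounds within control limits plus 3 SD, cut at about 15% in these data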;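 note: 0% = median of all compound wells on the plate and 100% = blocking peptide control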
# Yeast UUG start-2 – yeast start codon fidelity modulation; shares compounds with Yeast UUG start-1; S. cerevisiae UUG-start firefly luciferase, luminescence, 4 h; 100% means double the DMSO signal; activation, % at 38 µM; 540 tested, under 10 active;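 active = signal increase whose fitted curve reaches an absolute level of 40 at a concentration under 10 µM; inactive = activity opposite to the expected increase, or the rest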
# * marks the source's active call; other numbers are inactive results; i = inactive; . = not tested or not shown. Most compounds without a hit are left out; they make up all but 0.45% or so of the library.
Tn7 DDE FP | Yeast UUG start-1 | PglD DTNB | Tn6 DDE FP | Yeast UUG start-2 | SMILES
. | 182* | -1 | . | i | C[C@H](CO)N1C[C@H](C)[C@H](CN(C)Cc2ccc(C(=O)O)cc2)Oc2cc(C#CCC3CCCC3)ccc2S1(=O)=O
. | 1 | -2 | . | . | CNC[C@@H]1Oc2cc(C#CC3CCCCC3)ccc2S(=O)(=O)N([C@@H](C)CO)C[C@@H]1C
. | 112* | 2 | . | i | C[C@@H]1CN([C@H](C)CO)S(=O)(=O)c2ccc(C#CCC3CCCC3)cc2O[C@H]1CN(C)C(=O)CN(C)C
. | -2 | . | . | . | Cc1nn(C)cc1NC(=O)C[C@H]1CC[C@@H]2[C@@H](COc3ccc(NC(=O)C4CCC4)cc3C(=O)N2C)O1
. | 4 | 3 | . | . | CS(=O)(=O)Nc1ccc2c(c1)[C@H]1C[C@@H](CC(=O)NCC(F)(F)F)O[C@@H](CO)[C@H]1O2
. | -13 | 0 | . | . | CN1C(=O)c2cc(NC(=O)c3ccc(Cl)cc3)ccc2OC[C@@H]2O[C@@H](CC(=O)NCc3cccc(F)c3)CC[C@@H]21
10 | -12 | 3 | 2 | . | OCc1nc2ccccc2n1CCCCOc1ccccc1
-4 | 130* | 1 | 1 | 4 | Cc1ccc(OCCCCn2c(CO)nc3ccccc32)cc1
. | 5 | -1 | . | . | CCCNC(=O)C[C@@H]1CC[C@H]2[C@@H](COC[C@H](O)CN2Cc2cccc(F)c2)O1
. | 107* | 3 | . | i | CCCNC(=O)C[C@@H]1CC[C@@H]2[C@H](COC[C@@H](O)CN2Cc2cccc(F)c2)O1
7 | 431* | 8 | 1 | 2 | O=C(O)C(c1ccccc1)C(c1ccccc1)c1ccccc1 (stereo not given)
7 | active | -3 | -1 | 10 | Cc1cc(C)c(S(=O)(=O)N2CCN(S(=O)(=O)N3CCC(C)CC3)CC2)c(C)c1
. | -4 | 1 | . | . | CO[C@H]1CN(C)C(=O)c2ccc(NC(=O)Nc3c(C)noc3C)cc2OC[C@H](C)N(C)C[C@H]1C
13 | -1 | -2 | -1 | . | Cc1ccc(-c2nc3ccc(C)cn3c2Cc2ccsc2)cc1
-1 | 153* | -1 | -1 | 6 | Cc1ccc2nc(C(C)(C)C)c(Cc3ccsc3)n2c1
5 | 263* | -1 | 1 | -11 | CC(C)N(CCc1ccncc1)C(=S)Nc1ccc(F)c(Cl)c1
. | 9 | -2 | . | . | Cc1ccccc1S(=O)(=O)NCC[C@H]1CC[C@@H](NC(=O)C2CCCCC2)[C@@H](CO)O1
. | 100* | 3 | . | i | CC(C)c1cn(CC[C@@H]2CC[C@H](NC(=O)C3CCCCC3)[C@H](CO)O2)nn1
. | 167* | 3 | . | i | O=C(CCN1CCCCC1)NCC[C@H]1CC[C@H](NC(=O)C2CCCC2)[C@H](CO)O1
. | 224* | 6 | . | i | COc1ccccc1S(=O)(=O)N[C@H]1CC[C@H](CCNC(=O)C2CCCC2)O[C@H]1CO
. | 211* | -2 | . | i | Cc1ccccc1S(=O)(=O)NCC[C@H]1CC[C@H](NC(=O)C2CCCCC2)[C@H](CO)O1
. | 46 | 3 | . | . | COc1ccc(NC(=O)N(C)C[C@H]2OCCCC[C@@H](C)Oc3ccc(NC(=O)CCC(F)(F)F)cc3C(=O)N([C@H](C)CO)C[C@H]2C)cc1
0 | . | . | -3 | 4 | Cc1cc(-n2c(C)cc(C(=O)CSc3nncn3C(C)C)c2C)no1
. | 6 | -5 | . | . | CO[C@H]1CN(C)C(=O)c2ccc(NC(=O)Nc3ccccc3F)cc2OC[C@H](C)N(C(C)=O)C[C@@H]1C
. | 0 | -4 | . | . | Cc1ccccc1-c1ccc2c(c1)O[C@H](CN(C)C(=O)c1ccccn1)[C@@H](C)CN([C@@H](C)CO)S2(=O)=O
. | 27 | 11 | . | . | COc1ccc(-c2ccc3c(c2)O[C@H](CN(C)C(=O)c2ccccc2F)[C@H](C)CN([C@@H](C)CO)S3(=O)=O)cc1
. | -6 | -4 | . | . | COc1ccc(NC(=O)N(C)C[C@@H]2Oc3cc(-c4ccncc4)ccc3S(=O)(=O)N([C@@H](C)CO)C[C@@H]2C)cc1
. | 139* | 1 | . | i | Cc1ccccc1-c1ccc2c(c1)O[C@H](CN(C)C(=O)c1ccccn1)[C@H](C)CN([C@H](C)CO)S2(=O)=O
. | 25* | 2 | . | i | COc1ccc(-c2ccc3c(c2)O[C@H](CN(C)C(=O)c2ccccc2F)[C@H](C)CN([C@H](C)CO)S3(=O)=O)cc1
. | 109* | 0 | . | i | COc1ccccc1NC(=O)N(C)C[C@@H]1Oc2cc(Br)ccc2S(=O)(=O)N([C@@H](C)CO)C[C@H]1C
. | 172* | -4 | . | i | COc1ccc(NC(=O)N(C)C[C@@H]2Oc3cc(-c4ccncc4)ccc3S(=O)(=O)N([C@H](C)CO)C[C@@H]2C)cc1
. | -14 | 4 | . | . | CC(C)NC(=O)Nc1ccc2c(c1)C(=O)N([C@H](C)CO)C[C@H](C)[C@@H](CN(C)Cc1ccncc1)O2
. | -8 | -2 | . | . | C[C@H](CO)N1C[C@H](C)[C@@H](CN(C)Cc2ccncc2)Oc2cc(-c3ccccc3F)ccc2S1(=O)=O
. | active | 13 | . | i | C[C@@H]1CN([C@@H](C)CO)C(=O)c2cc(-c3cccc(F)c3)cnc2O[C@@H]1CN(C)C(=O)c1cccc(F)c1
. | 154* | 1 | . | i | C[C@H](CO)N1C[C@H](C)[C@H](CN(C)C(=O)c2cccnc2)Oc2ncc(-c3ccc(C#N)cc3)cc2C1=O
. | -6 | 4 | . | . | C[C@H]1CN([C@@H](C)CO)C(=O)c2cc(-c3ccc(C#N)cc3)cnc2O[C@H]1CN(C)C(=O)c1cccnc1
. | 6 | 0 | . | . | C[C@@H]1CN([C@@H](C)CO)C(=O)c2cc(NC(=O)Nc3ccccc3)ccc2O[C@@H](C)CCCCO[C@H]1CN(C)C(=O)CCC(F)(F)F
. | . | 2 | . | . | COC(=O)C[C@@H]1CC[C@H]2[C@H](COc3ccc(NS(=O)(=O)c4ccc(F)cc4)cc3C(=O)N2C)O1
-4 | 466* | 5 | -1 | -6 | CCN(CC)c1ccc(C=Nc2ccc(C#N)cc2)c(O)c1
. | 124* | 4 | . | i | O=C(Nc1ccccc1)NC1(c2cn(CC(=O)N3CCN(c4ccccc4)CC3)nn2)CCCCC1

# 3 compounds already listed, arranged by number of heavy atoms, descending:
Tn7 DDE FP | Yeast UUG start-1 | PglD DTNB | Tn6 DDE FP | Yeast UUG start-2 | SMILES
. | 1 | -2 | . | . | CNC[C@@H]1Oc2cc(C#CC3CCCCC3)ccc2S(=O)(=O)N([C@@H](C)CO)C[C@@H]1C
7 | active | -3 | -1 | 10 | Cc1cc(C)c(S(=O)(=O)N2CCN(S(=O)(=O)N3CCC(C)CC3)CC2)c(C)c1
-1 | 153* | -1 | -1 | 6 | Cc1ccc2nc(C(C)(C)C)c(Cc3ccsc3)n2c1

# 2 compounds from above, reduced to Yeast UUG start-1:
SMILES	Yeast UUG start-1
C[C@H](CO)N1C[C@H](C)[C@@H](CN(C)Cc2ccncc2)Oc2cc(-c3ccccc3F)ccc2S1(=O)=O	-8
C[C@@H]1CN([C@@H](C)CO)C(=O)c2cc(-c3cccc(F)c3)cnc2O[C@@H]1CN(C)C(=O)c1cccc(F)c1	active

# Other results follow.
Tn7 DDE FP | Yeast UUG start-1 | PglD DTNB | Tn6 DDE FP | Yeast UUG start-2 | SMILES
8 | -13 | 1 | 1 | . | O=C(CN1C(=O)NC2(CCCCCC2)C1=O)N1CCN(c2ccccc2)CC1
-6 | 528* | 4 | 3 | -3 | COc1ccc(NC(=O)c2noc(C(C)C)c2[N+](=O)[O-])cc1
10 | . | . | 6 | . | CC(=O)c1ccc(NC(=O)c2noc(C(C)C)c2[N+](=O)[O-])cc1
. | -6 | 0 | . | . | C[C@@H]1CN([C@H](C)CO)C(=O)c2cc(-c3cccc(F)c3)cnc2O[C@@H]1CN(C)C(=O)c1cnccn1
2 | . | . | 1 | . | COc1cc(S(=O)(=O)N2CCOCC2)ccc1N
1 | 196* | -1 | 6 | -1 | COc1cc(S(=O)(=O)N2CCOCC2)ccc1F
. | -19 | 10 | . | . | O=C(NCC[C@H]1CC[C@H](NC(=O)C2CC2)[C@H](CO)O1)c1ccc(F)cc1
